Test results reported in patent US20260174734A1, “PHARMACEUTICAL COMPOSITION” (MEXICHEM FLUOR S.A. DE C.V., priority 2016, published 2026).

Test: In vitro aerosolization performance from MDI (Next Generation Impactor)
Format: physicochemical
Protocol: The nominal dose of glycopyrronium bromide was 50 μg, the nominal dose of indacaterol was 100 μg and the nominal dose of fluticasone propionate was 125 μg.

Compound: C[N+]1(C)CCC(OC(=O)C(O)(c2ccccc2)C2CCCC2)C1 (stereo not drawn) [Glycopyrronium Bromide, glycopyrronium bromide]
- FPFED (%) fine particle fraction of the emitted dose (HFA-134a propellant, T = 0, combination formulation, MDI): 28.7 ± 0.2%
- FPFED (%) fine particle fraction of the emitted dose (HFA-134a propellant, T = 1 month @ 40° C./75% RH, valve down): 29.4 ± 0.5%
- FPFED (%) fine particle fraction of the emitted dose (HFA-152a propellant, T = 1 month @ 40° C./75% RH, valve down): 45.8 ± 1.8%
